Structures are written as SMILES. Where a name gives a salt, the structure may show the parent alone.

This experiment relates to Guinea Pig Ileum. Description: Guinea pig ileum assay - tonic contraction (K+-induced contraction of longitudinal muscle; calcium channel blocking activity). The class given is cell-based. As to conditions: Cavia porcellus, inhibition of tonic contraction by 50%, K+ challenge 80 mM for 2 minutes, compound 2 minutes prior and during, Tyrode's Solution 37° C. As to the method: GUINEA PIG ILEUM ASSAY--TONIC CONTRACTION
Male guinea-pigs weighing from 300-400 grams were stunned and bled. The abdomen was opened and 10-15 cm of terminal ileum was carefully removed and cleaned and placed in Tyrode's Solution of the following composition: NaCl (8 g/l), KCl (0.2 g/l), MgCl2 (0.2 g/l.), CaCl2 (0.2 g/l), NaH2 PO4 (0.05 g/l), NaHCO3 (1.0 g/l) and Glucose (1 g/l). The solution was maintained at 37° C. and gassed with 95% O2 and 5% CO2. Portions of the ileum were placed over a glass rod, a shallow incision was made the length of the mesenteric attachment just severing the outer-longitudinal muscle layer. The longitudinal muscle was separated from the underlying circular muscle by gentle dissection (Rang, H. P. Annals of N.Y. Academy of Science Vol. 144, page 756, (1964)). The tissue was fixed at one end to a tissue holder, the other end was connected by a thread to a force transducer and suspended in a muscle bath containing Tyrode's Solution maintained at 37° C. and gassed with 95% O2 and 5% CO2. An initial tension of 500 mg was applied and the tissue allowed to equilibrate for 60 minutes prior to the start of the study. During this period the tissue was washed every 16 minutes. Each preparation, at 16 minute intervals, was challenged with KCl sufficient to yield a bath K^+ concentration of 80 mMK for 2 minutes, then washed with fresh solution. […]

In general, IC50 refers to the concentration that inhibits the measured activity by half. With `COc1ccc([C@@H]2Sc3ccccc3N(CCN(C)C)C(=O)[C@@H]2OC(C)=O)cc1` [E, diltiazem hydrochloride, reference compound], the IC50 is 250 nM.

The values above are taken from patent US4808580A, “Naphtho[1,2-b][1,4]thiazepin-4(5H)-ones and use thereof in treatment of ischemia and blood pressure lowering” (Hoffmann-La Roche Inc., priority 1987, dated 1989).
